In patent publication US20130122541A1, “MICROORGANISM PRODUCTION OF HIGH-VALUE CHEMICAL PRODUCTS, AND RELATED COMPOSITIONS, METHODS AND SYSTEMS” (The Regents of the University of Colorado, priority 2010, published 2013):

Legend:
[1] = Reactive extraction of 3-HP from clarified fermentation broth into tertiary amine non-polar phase with co-solvents; type: physicochemical
Method: A fermentation broth obtained from a 10-liter fermentor at the conclusion of a fermentation experiment was heated to 60° C. for one hour as a microorganism kill step, then adjusted to approximately 100 grams per liter of 3-HP (produced by the method described in Common Methods Section, Subsection IIIa), and pH-adjusted to approximately 7.0 with ammonium sulfate. Calcium chloride at 1 M was added as a flocculent to reach a final concentration of about 8.2 g/L. Thereafter the pH was adjusted to a pH of approximately 2.0 using sulfuric acid. Thereafter a volume of this modified fermentation broth was centrifuged at approximately 3,200 g for 5 minutes to yield a clarified broth and a pellet, which was discarded.
Portions of the clarified broth were then subjected to reactive extraction by mixing with a tertiary amine non-polar phase comprising various co-solvents. After mixing, aqueous and amine non-polar phases were allowed to separate, and the amine non-polar phase was removed from the aqueous phase, which was subjected to analysis for 3-HP concentration by HPLC (see method in Common Methods Section). Amines included Alamine 336, described above, and tripentylamine. Table 40 provides a summary of the single pass extraction efficiency into the respective amine non-polar phase solutions, each respectively calculated based on the difference between the starting 3-HP in the portion and the 3-HP in the raffinate (aqueous phase after extraction).

E. coli = type: cell-based; conditions: increase of 3-HP MIC over BW25113 in M9 without supplements; M9 media with the named supplement(s), aerobic
Method: For MIC evaluations, the final results are expressed in chemical agent concentrations determined by analysis of the stock solution by HPLC (i.e., see Subsection IIIb).
The minimum inhibitory concentration (MIC) was determined aerobically in a 96 well-plate format. […] Media supplements were added according to levels reported in the Supplements Table, where specified. Overnight cultures of strains were grown in triplicate in 5 mL LB (with antibiotic where appropriate). A 1% (v/v) inoculum was introduced into a 5 ml culture of M9 minimal media.

With `O=C(O)CCO` [3-HP, 3-hydroxypropionic acid] the “% 3HP extracted (Total; single pass extraction efficiency)” value (“% 3HP extracted” below) ([1]; sample 1: Alamine 336 with Butanol) was 60.60%, the “% 3HP extracted” value ([1]; sample 2: Tripentylamine with Butanol) was 58.39% and the “% 3HP extracted” value ([1]; sample 3: Tripentylamine with p-Xylene) was 23.91%. The “% 3HP extracted” value ([1]; sample 4: Tripentylamine with Methyl ethyl ketone) was 67.47% and the “% 3HP extracted” value ([1]; sample 5: Tripentylamine with Methyl tert-butyl ether) was 37.53%.
For `N[C@@H](CCO)C(=O)O` [Homoserine (B)], the “% Increase Over Control” value (E. coli) was 27%.
With `NCCCCN` [Putrescine (C)] the “% Increase Over Control” value (E. coli) was 9%.
With `NCCCCCN` [Cadaverine (C)] the “% Increase Over Control” value (E. coli) was 27%.
For `NCCCCNCCCN` [Spermidine (C)], the “% Increase Over Control” value (E. coli) was 45%.
